Measurements from US10844032B2, “Substituted benzofuran, benzothiophene and indole Mcl-1 inhibitors” (Vanderbilt University, priority 2012, dated 2020).

The chains behind the UniProt entries cited, without tags or fusion partners. Residues count along the entry.
UniProt Q07820, 172-327: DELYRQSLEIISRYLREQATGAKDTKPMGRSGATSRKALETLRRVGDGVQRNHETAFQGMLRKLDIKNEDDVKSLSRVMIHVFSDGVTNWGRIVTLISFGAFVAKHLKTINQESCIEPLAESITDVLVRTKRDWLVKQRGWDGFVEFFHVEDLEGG

The molecules below were run against recombinant Mcl-1 (residues 172-327) (Homo sapiens (Human), UniProt Q07820) (assay: Bak peptide fluorescence polarization anisotropy competition assay, Mcl-1). Details: not given.
Assay type: binding
`O=C(O)c1sc2c(Cl)cccc2c1CCCOc1cccc2ccccc12` [Example 7, 7-chloro-3-(3-(naphthalen-1-yloxy)propyl)benzo[b]thiophene-2-carboxylic acid] gave a Ki of 501 to 999 nM. In the case of `Cc1cc(OCCCc2c(C(=O)O)sc3cccc(Cl)c23)cc(C)c1Cl` [Example 4, 4-chloro-3-(3-(4-chloro-3,5-dimethylphenoxy)propyl)benzo[b]thiophene-2-carboxylic acid], the Ki is reported as 1000 to 9990 nM. `Cc1cc(OCCCc2c(C(=O)O)sc3cc(Cl)ccc23)cc(C)c1Cl` [Example 6] gave a Ki of 101 to 299 nM. Work on `O=C(O)c1oc2ccc(Cl)cc2c1CCCOc1cccc2ccccc12` [Example 24, 5-chloro-3-(3-(naphthalen-1-yloxy)propyl)benzofuran-2-carboxylic acid] yielded a Ki of 1000 to 9990 nM. `Cc1cc(OCCCc2c(C(=O)O)sc3c(Cl)cccc23)cc(C)c1Cl` [Example 8, 7-chloro-3-(3-(4-chloro-3,5-dimethylphenoxy)propyl) benzo[b]thiophene-2-carboxylic acid] showed a Ki of 501 to 999 nM. `O=C(O)c1sc2cccc(Cl)c2c1CCCOc1cccc2ccccc12` [Example 3, 4-chloro-3-(3-(naphthalen-1-yloxy)propyl)benzo[b]thiophene-2-carboxylic acid] gave a Ki of 1000 to 9990 nM. `Cc1cc(OCCCc2c(C(=O)O)oc3ccccc23)cc(C)c1Cl` [Example 26, 3-(3-(4-chloro-3,5-dimethylphenoxy)propyl)benzofuran-2-carboxylic acid] showed a Ki of 1000 to 9990 nM.

Same assay, conditions: Table 3; FITC-Bak peptide 10 nM, Mcl-1 14 nM; read-out: Ki Mcl-1
Molecule `Cc1cc(OCCCc2c(C(=O)O)sc3cc(Cl)ccc23)cc(C)c1Cl` [Example 6] has a Ki of 210 nM.
